Molecular target: Metabotropic glutamate receptor 2 (Homo sapiens, UniProt Q14416)
Assay: Antagonistic activity against stimulation of GTP (gamma) 35 S binding by glutamate in membranes from CHO cells expressing human Metabotropic glutamate receptor 2
Assay type: cell membranes

Sequences of proteins named here, by UniProt entry; tags and fusion partners are left off. A change or cut given only in a name is not applied to a line headed by its entry.
UniProt Q14416: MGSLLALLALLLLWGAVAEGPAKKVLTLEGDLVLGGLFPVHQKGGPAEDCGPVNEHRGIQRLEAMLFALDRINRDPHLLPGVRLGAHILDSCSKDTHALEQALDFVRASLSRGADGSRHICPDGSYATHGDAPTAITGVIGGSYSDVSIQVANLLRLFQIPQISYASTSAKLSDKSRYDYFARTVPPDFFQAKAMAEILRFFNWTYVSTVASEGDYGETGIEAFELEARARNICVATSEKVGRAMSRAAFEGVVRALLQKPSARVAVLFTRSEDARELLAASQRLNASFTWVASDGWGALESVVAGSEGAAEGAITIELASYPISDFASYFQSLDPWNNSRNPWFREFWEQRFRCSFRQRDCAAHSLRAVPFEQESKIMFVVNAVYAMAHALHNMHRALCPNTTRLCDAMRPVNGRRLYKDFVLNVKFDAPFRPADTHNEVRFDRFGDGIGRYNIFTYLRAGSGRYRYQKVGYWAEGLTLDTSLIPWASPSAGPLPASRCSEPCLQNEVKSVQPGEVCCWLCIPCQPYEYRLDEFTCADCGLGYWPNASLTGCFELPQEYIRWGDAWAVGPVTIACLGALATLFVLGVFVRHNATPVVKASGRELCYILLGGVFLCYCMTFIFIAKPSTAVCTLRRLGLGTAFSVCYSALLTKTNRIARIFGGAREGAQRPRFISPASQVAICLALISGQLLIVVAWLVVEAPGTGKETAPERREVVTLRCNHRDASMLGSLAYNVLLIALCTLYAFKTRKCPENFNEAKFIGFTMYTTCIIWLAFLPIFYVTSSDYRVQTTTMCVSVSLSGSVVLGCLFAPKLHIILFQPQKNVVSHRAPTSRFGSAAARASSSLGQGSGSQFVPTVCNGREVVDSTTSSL

IC50: 6.4 µM
SMILES: NC(C(=O)O)[C@H]1[C@@H](CC2c3ccccc3Oc3ccccc32)[C@@H]1C(=O)O (stereo partly specified)
